The source of these data is the supplement of paper PMC11246515.

This series is described as follows: total protein half-life in vivo (active degradation + dilution); higher = more stable protein.
Where [1] appears, read: E. coli NCM3722 delta-clpP, growth: N-lim chemostat, doubling time 6 h.
Setting [2] is: E. coli NCM3722 delta-lon, growth: N-lim chemostat, doubling time 6 h.
The mark [3] stands for this setting: E. coli NCM3722 delta-smpB, growth: N-lim chemostat, doubling time 6 h.
[4] abbreviates: wild type E. coli NCM3722, growth: C-lim chemostat, doubling time 3 h.
The mark [5] stands for this setting: wild type E. coli NCM3722, growth: N-lim chemostat, doubling time 6 h.
The mark [6] stands for this setting: wild type E. coli NCM3722, growth: N-lim chemostat, doubling time 12 h.
Setting [7] is: wild type E. coli NCM3722, growth: P-lim chemostat, doubling time 6 h.
Setting [8] is: wild type E. coli NCM3722, growth: P-lim chemostat, doubling time 12 h.
Where [9] appears, read: E. coli NCM3722 delta-clpP delta-lon delta-hslV, growth: N-lim chemostat, doubling time 6 h.
[10] abbreviates: E. coli NCM3722 delta-hslV, growth: N-lim chemostat, doubling time 6 h.
[11] abbreviates: wild type E. coli NCM3722, growth: C-lim chemostat, doubling time 6 h.
[12] abbreviates: wild type E. coli NCM3722, growth: C-lim chemostat, doubling time 12 h.

± gives the standard deviation of the averaged measurements.

With “MANMFALILVIATLVTGILWCVDKFFFAPKRRERQAAAQAAAGDSLDKATLKKVAPKPGWLETGASVFPVLAIVLIVRSFIYEPFQIPSGSMMPTLLIGDFILVEKFAYGIKDPIYQKTLIETGHPKRGDIVVFKYPEDPKLDYIKRAVGLPGDKVTYDPVSKELTIQPGCSSGQACENALPVTYSNVEPSDFVQTFSRRNGGEATSGFFEVPKNETKENGIRLSERKETLGDVTHRILTVPIAQDQVGMYYQQPGQQLATWIVPPGQYFMMGDNRDNSADSRYWGFVPEANLVGRATAIWMSFDKQEGEWPTGLRLSRIGGIH”, the “total protein half-life in vivo” value was 5.25 ± 0.62 h under setting [1]; 7.28 ± 0.52 h under setting [2]; 6.08 ± 0.34 h under setting [3]; 3.41 ± 0.3 h under setting [4]; 6.89 ± 0.1 h under setting [5]; 13 ± 1.4 h under setting [6]. The “total protein half-life in vivo” value under setting [7] stood at 6.25 ± 0.67 h and the “total protein half-life in vivo” value under setting [8] came to 12 ± 0.81 h.
For “MASRGVNKVILVGNLGQDPEVRYMPNGGAVANITLATSESWRDKATGEMKEQTEWHRVVLFGKLAEVASEYLRKGSQVYIEGQLRTRKWTDQSGQDRYTTEVVVNVGGTMQMLGGRQGGGAPAGGNIGGGQPQGGWGQPQQPQGGNQFSGGAQSRPQQSAPAAPSNEPPMDFDDDIPF [P0AGE0]”, the “total protein half-life in vivo” value is 4.51 ± 0.58 h under setting [9]; 3.47 ± 0.28 h under setting [1]; 3.38 ± 0.094 h under setting [10]; 3.82 ± 0.11 h under setting [2]; 3.04 ± 0.22 h under setting [3]; 3.13 ± 0.12 h under setting [4]. Besides, the “total protein half-life in vivo” value runs as follows: under setting [11], 5.21 ± 0.29 h; under setting [12], 8.536 ± 0.044 h; under setting [5], 3.39 ± 0.037 h; under setting [6], 4.79 ± 0.2 h; under setting [7], 5.467 ± 0.0091 h; under setting [8], 11.3 ± 0.81 h.
Consider “MIRLYPEQLRAQLNEGLRAAYLLLGNDPLLLQESQDAVRQVAAAQGFEEHHTFSIDPNTDWNAIFSLCQAMSLFASRQTLLLLLPENGPNAAINEQLLTLTGLLHDDLLLIVRGNKLSKAQENAAWFTALANRSVQVTCQTPEQAQLPRWVAARAKQLNLELDDAANQVLCYCYEGNLLALAQALERLSLLWPDGKLTLPRVEQAVNDAAHFTPFHWVDALLMGKSKRALHILQQLRLEGSEPVILLRTLQRELLLLVNLKRQSAHTPLRALFDKHRVWQNRRGMMGEALNRLSQTQLRQAVQLLTRTELTLKQDYGQSVWAELEGLSLLLCHKPLADVFIDG”, for which the “total protein half-life in vivo” value turned out to be 4.96 ± 1.2 h under setting [9]; 4.6 ± 0.22 h under setting [1]; 5.68 ± 2.1 h under setting [10]; 4.94 ± 0.21 h under setting [2]; 4.09 ± 0.21 h under setting [3]; 6.12 ± 2 h under setting [11]. In addition, the “total protein half-life in vivo” value under setting [12] worked out at 8.3 ± 1.2 h; the “total protein half-life in vivo” value under setting [5] came out at 4.26 ± 0.46 h; the “total protein half-life in vivo” value under setting [6] is 7.46 ± 1.3 h; the “total protein half-life in vivo” value under setting [7] turned out to be 5.56 ± 1.2 h; the “total protein half-life in vivo” value under setting [8] was found to be 9.19 ± 0.12 h.
